Data set [1] deals with HT-29. Put plainly: cells. Particulars: Homo sapiens, HT-29, 72 h.
Data set [2] concerns HCT-116. Description: cells. The following applies: Homo sapiens, HCT-116, 72 h.
Data set [3] in a line: Metabolic stability in human liver microsomes at 1 uM in presence of NADPH incubated for 5 mins by LC-MS/MS analysis. The following applies: read-out: Stability. It counts as ADME, Microsome.
Data set [4] in a line: Metabolic stability in mouse liver microsomes at 1 uM in presence of NADPH incubated for 5 mins by LC-MS/MS analysis. It counts as ADME, Microsome. The following applies: read-out: Stability. A general note: Liver microsomes are vesicles of endoplasmic reticulum, rich in cytochrome P450 enzymes.
A short description of data set [5]: Metabolic stability in mouse liver microsomes at 1 uM in presence of NADPH incubated for 60 mins by LC-MS/MS analysis. It counts as ADME, Microsome. The following applies: read-out: Stability.
Data set [6] can be described thus: Metabolic stability in human liver microsomes at 1 uM in presence of NADPH incubated for 10 mins by LC-MS/MS analysis. It is filed as ADME, Microsome. Particulars: read-out: Stability.
The nature of data set [7]: Metabolic stability in human liver microsomes at 1 uM in presence of NADPH incubated for 0 mins by LC-MS/MS analysis. The following applies: read-out: Stability. It is filed as ADME, Microsome.
Data set [8] can be described thus: Metabolic stability in human liver microsomes at 1 uM in presence of NADPH incubated for 60 mins by LC-MS/MS analysis. It counts as ADME, Microsome. Particulars: read-out: Stability.
The nature of data set [9]: Metabolic stability in mouse liver microsomes at 1 uM in presence of NADPH incubated for 0 mins by LC-MS/MS analysis. It counts as ADME, Microsome. Particulars: read-out: Stability.
Data set [10] can be described thus: Metabolic stability in human liver microsomes at 1 uM in presence of NADPH incubated for 15 mins by LC-MS/MS analysis. It is filed as ADME, Microsome. Particulars: read-out: Stability.
Data set [11] is described as follows: Metabolic stability in mouse liver microsomes at 1 uM in presence of NADPH incubated for 10 mins by LC-MS/MS analysis. Particulars: read-out: Stability. It is filed as ADME, Microsome.
Data set [12] can be described thus: Metabolic stability in human liver microsomes at 1 uM in presence of NADPH incubated for 30 mins by LC-MS/MS analysis. It counts as ADME, Microsome. The following applies: read-out: Stability.
A short description of data set [13]: Metabolic stability in mouse liver microsomes at 1 uM in presence of NADPH incubated for 15 mins by LC-MS/MS analysis. It counts as ADME, Microsome. Particulars: read-out: Stability.
The nature of data set [14]: Metabolic stability in human liver microsomes at 1 uM in presence of NADPH incubated for 45 mins by LC-MS/MS analysis. The following applies: read-out: Stability. It is filed as ADME, Microsome.
Data set [15] in a line: Metabolic stability in mouse liver microsomes at 1 uM in presence of NADPH incubated for 30 mins by LC-MS/MS analysis. It counts as ADME, Microsome. The following applies: read-out: Stability.

As usually defined, the IC50 is the midpoint of a concentration-inhibition curve. Low values mean inhibition by little substance, high ones a need for much substance. `C=CC(=O)Nc1ncc(-c2ccccc2)s1` came in with an IC50 in [1] of 24.3 to 29.3 µM.
On to `C=CC(=O)Nc1nc(-c2ccccc2)cs1`, for which, in data set [2], the IC50 was 18.6 to 29 µM.
Still for that read-out and setting: the result for `C=CC(=O)Nc1nc(-c2ccc(C)cc2)cs1` reads 15.3 to 18.6 µM; that for `C=CC(=O)Nc1nc(-c2ccc(OC)cc2)cs1`, 8 to 12.9 µM.
`C=CC(=O)N(CC(=O)N1CCOCC1)c1nc(-c2ccccc2)cs1`: the results for the IC50 in [1] and in data set [2] were 13.3 to 14.8 µM and 14.6 to 19.8 µM, respectively.
`C=CC(=O)Nc1nc(-c2ccc3c(c2)OCO3)cs1` gave an IC50 in [1] of 17.7 to 20.1 µM.
On the same count and under the same terms, in the case of `C=CC(=O)N(Cc1cc(C)no1)c1nc(-c2ccc(C(F)(F)F)cc2)cs1` it was 22.3 to 25.9 µM.
For `C=CC(=O)Nc1nc(-c2ccccc2)c(C)s1`, the IC50 in [2] fell in the range of 20.1 to 21.7 µM.
On to `C=CS(=O)(=O)Nc1ccc(Cl)c(S(=O)(=O)N(C)C)c1`, for which the IC50 in [1] lay within 10.2 to 16.8 µM; in [2] it was 9.9 to 11 µM.
The like results for `C=CC(=O)Nc1nc(-c2ccccc2)c(C(=O)OCC)s1` were, in that order, 18 to 25.3 µM and 19.6 to 24.7 µM.
In turn, `C=CC(=O)N(CC(=O)NC1COC1)c1nc(-c2ccccc2)cs1` returned an IC50 in [2] of 20.8 to 23.2 µM.
With `C=CC(=O)N(Cc1cc(C)no1)c1cc(-c2ccccc2O)cs1`, the values for the IC50 in [1] and in [2] were 24.4 to 29.5 µM and 19.3 to 20.7 µM, respectively.
Turning to `C=CC(=O)Nc1nc(-c2ccccc2Cl)cs1`, the IC50 lay within 10.2 to 19.5 µM in data set [1] and 12.3 to 20.1 µM in data set [2].
On to `C=CC(=O)Nc1nc(-c2ccc3ccccc3c2)cs1`, for which the IC50 in data set [1] lay within 12.5 to 13.4 µM; in data set [2] it was 11.8 to 17.4 µM.
Regarding `C=CC(=O)N(CC(=O)NCCN1CCOCC1)c1nc(-c2ccccc2)cs1`, in data set [1], the IC50 was in the range of 12.2 to 14.5 µM.
`C=CC(=O)Nc1nc(-c2ccccc2O)cs1` yielded an IC50 in [1] of 16.2 to 24.9 µM.
With `C=CC(=O)Nc1nc(-c2ccc(Cl)cc2)cs1`, the remaining at 5 min, 1 µM was determined as 66.7% in data set [3] and 33.9% in [4]. Besides, the results for the IC50 in data set [1] and in data set [2] were 17.3 to 23.7 µM and 12.6 to 20.6 µM, respectively. Besides, the remaining at 1 h, 1 µM in data set [5] was 5.36%; in data set [8] it was 5.75%. Besides, the remaining at 10 min, 1 µM in [6] is 48.3%; in data set [11], 17.9%. Also, the remaining at 0 h, 1 µM in [7] and in data set [9] was 100% throughout. Besides, the remaining at […], 1 µM in data set [10] was 39.1%; in data set [13], 12.5%. The remaining at 0.5 h, 1 µM is 19.5% in data set [12] and 7.14% in [15]. Moreover, in data set [14], the remaining at 0.75 h, 1 µM amounted to 8.04%.
Regarding `C=CC(=O)Nc1nc(-c2ccc(C(F)(F)F)cc2)cs1`, the IC50 in [1] and in data set [2] was 4 to 5.7 µM throughout.
Turning to `C=CC(=O)Nc1nc(-c2cccc(Cl)c2)cs1`, the IC50 in [2] was in the range of 11.9 to 14.3 µM.

For the origin of these results see ChEMBL document CHEMBL4400531, “Structure-Based Design of N-(5-Phenylthiazol-2-yl)acrylamides as Novel and Potent Glutathione S-Transferase Omega 1 Inhibitors” (J Med Chem, 2019).
